Measured values as given in US6433001B1, “1H-indole-3-glyoxylamide sPLA2 inhibitors” (Eli Lilly and Company, priority 1994, dated 2002).

Experiments:
[1] = target: T1, Human Secreted Phospholipase A2 (Homo sapiens, UniProt P14555); experiment: guinea pig lung pleural strip tissue test, sPLA2-induced contraction; assay type: cell-based
T1 sequence (P14555 21-144): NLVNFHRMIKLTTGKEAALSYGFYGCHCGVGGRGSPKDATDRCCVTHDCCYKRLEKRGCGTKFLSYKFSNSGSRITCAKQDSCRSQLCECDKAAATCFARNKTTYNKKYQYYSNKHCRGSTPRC
Description: Male Hartley strain guinea pigs (500-700 g) were killed by cervical dislocation and their heart and lungs removed intact and placed in aerated (95% O2:5% CO2) Krebs buffer. Dorsal pleural strips (4×1×25 mm) were dissected from intact parenchymal segments (8×4×25 mm) cut parallel to the outer edge of the lower lung lobes. Two adjacent pleural strips, obtained from a single lobe and representing a single tissue sample, were tied at either end and independently attached to a metal support rod. One rod was attached to a Grass force-displacement transducer (Model FTO3C, product of Grass Medical Instruments Co., Quincy, Mass., USA). […] All tissues were placed in 10 ml jacketed tissue baths maintained at 37° C. […]
Initially tissues were challenged 3 times with KCl (40 mM) to test tissue viability and to obtain a consistent response. […] To minimize variability between tissues obtained from different animals, contractile responses were expressed as a percentage of the maximal response obtained with the final KCl challenge. […]
Data from different experiments were pooled and presented as a percentage of the maximal KCl responses (mean±S.E.). To estimate the drug induced rightward shifts in the concentration response curves, the curves were analyzed simultaneously using statistical nonlinear modeling methods similar to those described by Waud (1976), Equation 26, p. […]

[2] = target: T1, Human Secreted Phospholipase A2; experiment: chromogenic assay for inhibitors of recombinant human secreted phospholipase A2; assay type: biochemical; conditions: diheptanoyl thio-PC substrate, pH 7.5, 40° C. for 30 minutes, absorbance at 405 nanometers; read-out: Inhibition of human secreted PLA2 IC50 ± mean deviation (3-4 tests)
Experimental: The following chromogenic assay procedure was used to identify and evaluate inhibitors of recombinant human secreted phospholipase A2. The assay described herein has been adapted for high volume screening using 96 well microtiter plates.
Adjust pH to 4.5 with acetic acid
DTNB—5,5′-dithiobis-2-nitrobenzoic acid
RACEMIC DIHEPTANOYL THIO—PC
racemic 1,2-bis(heptanoylthio)-1,2-dideoxy-sn-glycero-3-phosphorylcholine
TRITON X-100™ prepare at 6.249 mg/ml in reaction buffer to equal […].
A measured volume of racemic dipheptanoyl thio PC supplied in chloroform at a concentration of 100 mg/ml is taken to dryness and redissolved in 10 millimolar TRITON X-100™ nonionic detergent aqueous solution.
Reaction Buffer is added to the solution, then DTNB to give the Reaction Mixture.
The reaction mixture thus obtained contains 1 mM diheptanoly thio-PC substrate, 0.29 mm Triton X-100™ detergent, and 0.12 mm DTMB in a buffered aqueous solution at pH 7.5.
1. Add 0.2 ml reaction mixture to all wells;
2. Add 10 ul test compound (or solvent blank) to appropriate wells, mix 20 seconds;
3. […]
5. Read absorbance of wells at 405 nanometers with an automatic plate reader.
All compounds were tested in triplicate. […] In all cases, % inhibition measured at 405 nanometers generated by enzyme reactions containing inhibitors relative to the uninhibited control reactions was determined. […]

Work on `CCc1c(C(=O)C(N)=O)c2c(OCC(=O)O)cccc2n1Cc1ccccc1` [Example 9, [[3-(2-Amino-1,2-dioxoethyl)-2-ethyl-1-(phenylmethyl)-1H-indol-4-yl]oxy]acetic Acid] yielded a Kb [1] of 88.7 ± 18.2 nM and an IC50 [2] of 9 ± 1.73 nM.
